Reference: US6451807B1, “Methods of treating sexual dysfunction in an individual suffering from a retinal disease, class 1 congestive heart failure, or myocardial infarction using a PDE5 inhibitor” (Lilly Icos, LLC., priority 1999, dated 2002)

Protein sequences, listed by entry. Tags and fused reporters are not part of them. Residues count along the entry.
UniProt P11541, 2-856 limits assumed: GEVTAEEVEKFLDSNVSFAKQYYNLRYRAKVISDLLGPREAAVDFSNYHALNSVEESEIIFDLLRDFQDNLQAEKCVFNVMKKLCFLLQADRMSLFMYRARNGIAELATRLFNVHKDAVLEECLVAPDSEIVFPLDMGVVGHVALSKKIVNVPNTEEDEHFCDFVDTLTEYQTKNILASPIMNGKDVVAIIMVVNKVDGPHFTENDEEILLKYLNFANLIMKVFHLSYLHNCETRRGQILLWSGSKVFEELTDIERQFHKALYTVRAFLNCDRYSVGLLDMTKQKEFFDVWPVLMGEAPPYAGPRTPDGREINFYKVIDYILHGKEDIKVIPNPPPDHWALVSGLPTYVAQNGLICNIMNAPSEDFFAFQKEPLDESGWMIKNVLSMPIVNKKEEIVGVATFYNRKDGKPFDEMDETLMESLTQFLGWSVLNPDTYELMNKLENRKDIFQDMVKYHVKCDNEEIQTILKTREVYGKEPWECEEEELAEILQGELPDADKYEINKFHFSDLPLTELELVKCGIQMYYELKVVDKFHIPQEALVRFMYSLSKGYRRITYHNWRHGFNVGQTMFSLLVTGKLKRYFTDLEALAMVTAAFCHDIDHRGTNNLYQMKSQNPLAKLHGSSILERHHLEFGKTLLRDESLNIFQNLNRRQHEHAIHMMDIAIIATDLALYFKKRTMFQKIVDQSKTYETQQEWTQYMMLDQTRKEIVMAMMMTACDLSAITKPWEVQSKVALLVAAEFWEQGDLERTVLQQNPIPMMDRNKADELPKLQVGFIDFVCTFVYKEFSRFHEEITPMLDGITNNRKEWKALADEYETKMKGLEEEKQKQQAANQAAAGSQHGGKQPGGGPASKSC
UniProt P23439, 2-850 limits assumed: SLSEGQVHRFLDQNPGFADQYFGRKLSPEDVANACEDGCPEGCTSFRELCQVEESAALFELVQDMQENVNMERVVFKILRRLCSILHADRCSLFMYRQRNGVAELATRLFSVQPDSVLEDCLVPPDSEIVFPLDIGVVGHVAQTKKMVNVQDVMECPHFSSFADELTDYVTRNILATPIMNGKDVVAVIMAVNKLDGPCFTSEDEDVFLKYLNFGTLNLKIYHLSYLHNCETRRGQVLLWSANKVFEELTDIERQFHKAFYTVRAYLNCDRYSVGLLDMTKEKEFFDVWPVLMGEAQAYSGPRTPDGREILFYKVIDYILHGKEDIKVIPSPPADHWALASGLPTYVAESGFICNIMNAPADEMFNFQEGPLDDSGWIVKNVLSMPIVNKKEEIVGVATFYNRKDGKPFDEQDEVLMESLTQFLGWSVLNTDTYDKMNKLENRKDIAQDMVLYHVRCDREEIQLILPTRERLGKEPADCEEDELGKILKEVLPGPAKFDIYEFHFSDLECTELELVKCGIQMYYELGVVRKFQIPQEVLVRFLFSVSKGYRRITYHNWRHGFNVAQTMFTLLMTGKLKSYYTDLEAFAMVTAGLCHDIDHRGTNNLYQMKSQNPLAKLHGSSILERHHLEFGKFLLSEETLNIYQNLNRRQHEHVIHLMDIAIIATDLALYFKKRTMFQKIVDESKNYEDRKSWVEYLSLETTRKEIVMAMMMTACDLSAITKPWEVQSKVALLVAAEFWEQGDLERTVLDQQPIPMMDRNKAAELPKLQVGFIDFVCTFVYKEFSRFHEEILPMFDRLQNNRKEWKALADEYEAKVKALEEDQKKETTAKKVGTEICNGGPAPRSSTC
UniProt P04972, whole entry partner: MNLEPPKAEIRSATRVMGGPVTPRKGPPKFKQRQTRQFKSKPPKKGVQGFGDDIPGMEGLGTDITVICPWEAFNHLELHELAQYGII

Molecular target: Bovine PDE6 (Bos taurus, UniProt P11541+P23439)
Assay: PDE6 enzyme inhibition, IC50 determination
Type: biochemical
Details: read-out: PDE6 IC50

With CN1CC(=O)N2C(Cc3c([nH]c4ccccc34)C2c2ccc3c(c2)OCO3)C1=O (stereo not shown) the IC50 was 937 nM.
